# From PubChem BioAssay AID624415 (National Center for Advancing Translational Sciences (NCATS), 2012)
# Sequences of proteins named here, by UniProt entry; tags and fusion partners are left off.
# UniProt Q9GZU1, whole entry, looked up: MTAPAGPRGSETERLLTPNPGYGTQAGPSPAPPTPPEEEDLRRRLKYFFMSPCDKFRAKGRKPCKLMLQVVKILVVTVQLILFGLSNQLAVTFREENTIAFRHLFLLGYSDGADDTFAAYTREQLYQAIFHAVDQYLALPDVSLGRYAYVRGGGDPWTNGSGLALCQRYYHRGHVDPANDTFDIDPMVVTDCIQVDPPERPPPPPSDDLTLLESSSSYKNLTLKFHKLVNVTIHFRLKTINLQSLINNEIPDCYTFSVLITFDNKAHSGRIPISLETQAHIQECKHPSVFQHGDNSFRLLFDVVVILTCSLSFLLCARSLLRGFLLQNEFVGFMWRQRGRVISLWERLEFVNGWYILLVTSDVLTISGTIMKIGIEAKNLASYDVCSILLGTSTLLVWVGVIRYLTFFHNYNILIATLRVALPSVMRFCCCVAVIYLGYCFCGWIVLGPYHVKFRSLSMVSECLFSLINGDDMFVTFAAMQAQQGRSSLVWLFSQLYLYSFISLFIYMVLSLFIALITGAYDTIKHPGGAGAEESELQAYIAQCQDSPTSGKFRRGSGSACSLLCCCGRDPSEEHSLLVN
# Out of some 390,000 compounds screened, about 60 (0.02%) were called active. Listed are the inconclusive results; actives and inactives stand elsewhere. Cut-off read from the data, not from the text of the source: active = activity change below about -50%; inconclusive = between about -30% and that limit; inactive = weaker than that.
# Molecular target: Mucolipin-1 (Homo sapiens) (UniProt Q9GZU1)
# Assay: qHTS for Inhibitors of the Human Mucolipin Transient Receptor Potential 1 (TRPML1);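 note: stimulus is agonist 54-4 at its EC80 concentration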
# Details: TRPML1-inducible cells, Ca2+ dye fluorescence, FDSS; stronger effect = lower value; inhibition of EC80 agonist-evoked calcium signal
# Text: Mutations of human Mucolipin transient receptor potential 1 (TRPML1) cause type IV mucolipidosis (ML4), a devastating neurodegenerative disease in young children. […] Currently, there is no treatment for ML4. […] Under physiological conditions, TRPMLs regulate membrane trafficking by transducing information about PI(3,5)P2 levels into changes in juxtaorganellar Ca2+, thereby triggering membrane fusion/fission events in the late endocytic pathways (endolysosomal trafficking). In addition, TRPML1 mediates release of Fe2+ from late endosomes and lysosomes, which is essential for cellular iron metabolism. Thus, impaired ion (Ca2+ and Fe2+) homeostasis underlies lysosomal dysfunction and ML4 phenotypes. In ML4 cells, the problem is twofold. First, defective Ca2+-dependent membrane trafficking due to TRPML1-deficiency causes accumulation of lipids and other bio-materials in the lysosome. […]
# TRPML1-DL cells are dissociated from flasks, counted and, brought up to a density of 500,000 cells per mL of media containing a 1X Tet inducer. […] The assay plate is read on the FDSS using the following protocol: 10 second baseline read, 23 nL of compounds and controls are added using 1536 pintool, agonist read for 110 seconds, 1 uL EC80 addition (4 uM final 54-4 diluted in media), antagonist read for 110 seconds.
# % is set by controls: 0 for no effect and ±100 for the full control effect.
row,Compound,"activity change, negative = inhibition"
1,O=C(O)COc1ccc([As](=O)(O)O)cc1[N+](=O)[O-],inconclusive: -36.4%
2,COc1ccc(C2=NCC(CBr)S2)cc1 (configuration not stated),inconclusive: -44.2%
